We go through 12 compounds from the SangsterLogP compilation.

This data set in a line: method code SF, from Hansch, C. & Leo, A. (1987). Log P database [Dataset]. Pomona College Medicinal Chemistry Project.
For `COc1ccc([N+](=O)[O-])cc1`, the logP was 2.05. As to `O=[N+]([O-])OCC(CO[N+](=O)[O-])O[N+](=O)[O-]`, the logP is 1.62. Then `C[C@]12C=CC(=O)C=C1CC[C@H]1[C@@H]3C[C@@H](O)[C@](O)(C(=O)CO)[C@@]3(C)C[C@H](O)[C@@]12F`, with 1.16; and `OC(C(F)(F)F)C(F)(F)F`, with 1.66; and `OCc1ccco1`, with 0.28. `C=CN1CCCC1=O` registered a logP of 0.37. Regarding `CC(O)COC(C)CO` (configuration not stated), the logP is -0.67. In the case of `O[C@@H]([C@H](O)[C@H](O)CBr)[C@H](O)CBr` it was -0.24; in that of `O=c1ccoc2ccccc12`, 1.38; in that of `O=Cc1ccccc1[N+](=O)[O-]`, 1.74. In the case of `CC[C@]1(O)C[C@@H]2CN(CCc3c([nH]c4ccccc34)[C@@](C(=O)OC)(c3cc4c(cc3OC)N(C)[C@H]3[C@@](O)(C(=O)OC)[C@H](OC(C)=O)[C@]5(CC)C=CCN6CC[C@]43[C@@H]65)C2)C1` it was 3.72. Then `c1ccc2c(c1)Nc1ccccc1O2`, with 3.85.

What is called logP is the decadic logarithm of the partition coefficient of the neutral form, usually between octanol and water.
